Assay results: patent US10568926B2, “Use of des-aspartate-angiotensin I to treat patients exhibiting malignant growth, invasive growth, tumor, tumor metastasis or cancer” (dated 2020)
Where “and” joins values, the source holds several entries; their conditions need not be identical. Equal values may be shown once. Read-outs that look alike come from different tables or passages of the source.

How the values were obtained:
[1] = test system: SH-SY5Y neuroblastoma cells; assay: Dopamine-induced neuroblastoma SH-SY5Y cell death (MTT)
[2] = test system: pancreatic beta-TC-6 cells; assay: Glucose-induced pancreatic beta-TC-6 cell death (MTT); details: 4 days
[3] = test system: human umbilical vein endothelial cells; details: 10^−10 M DAA-I 15 min
[4] = test system: human umbilical vein endothelial cells; assay: Production of prostaglandins and thromboxane in HUVEC
[5] = test system: superoxide production in lungs; details: 75 nmole/kg/day; day 4 to day 14
[6] = test system: C57/BL/6J mice exposed to 42° C.; assay: Survival of mice subjected to heat stroke; details: 7.5 nmole/kg oral 2 h before 42° C. for 45 min; first 24 hours survival
HUVEC = assay: TNF-α-induced production of ICAM-1 in HUVEC; details: 4 ng/ml TNF-α
[7] = test system: gp91-phox protein in lungs; details: 75 nmole/kg/day
[8] = test system: hepatic heat shock proteins 27 and 70; assay: Hepatic heat shock proteins 27 and 70 in mice exposed to heat shock; details: pretreatment with 7.5 nmole/kg DAA-I; heat stroke
L6 skeletal muscle cells [9] = assay: H2O2-induced activation and translocation of NFκB to the nucleus in L6 skeletal muscle cells; details: 200 μM H2O2
B16-F10 melanoma cells = details: 24 hours
[10] = test system: B16-F10 melanoma cells in C57BL/6J mice; assay: Growth of intra-hepatic administered B16-F10 melanoma cells in mice; details: 150 nmole/kg/day oral for 19 days; n 10
[11] = test system: Hsp90 in B16-F10 melanoma cells; assay: Hsp90 content in B16-F10 melanoma cells (Western blot); details: 24 hours
A549 cells [12] = assay: LPS-induced superoxide production in A549 cells
ICAM-1 protein in lungs = details: 75 nmole/kg/day; day 4 to day 14
pulmonary MPO activity = details: 75 nmole/kg/day
L6 skeletal muscle cells [13] = test system: L6 skeletal muscle cells
T1-α protein in BALF = details: 75 nmole/kg/day oral
A549 cells [14] = test system: A549 cells
C57BL/6J mice = details: Sim et al., 2008; cited from earlier work
[15] = test system: PGE2 and PGI2 in lung supernatant; details: 75 nmole/kg/day
[16] = 10 μM cyclooxygenase inhibitor pre-incubated 1 h
[17] = 1 μM antagonist pre-incubated 1 h

NCCc1ccc(O)c(O)c1
LD50 (death of SH-SY5Y) ([1]; dopamine 24 h, MTT): 400 µM

O=C[C@H](O)[C@@H](O)[C@H](O)[C@H](O)CO
LD50 (death of beta-TC-6 cells) ([2]; glucose added to DMEM (basal 25 mM), MTT): 33.3 mM

COc1ccc2c(c1)c(CC(=O)O)c(C)n2C(=O)c1ccc(Cl)cc1
effect on DAA-I-induced production of PGE2 and PGI2 [3, 16]: blocked

PD123319
effect on DAA-I-induced production of PGE2 and PGI2 [3, 17]: not

CS(=O)(=O)Nc1ccc([N+](=O)[O-])cc1OC1CCCCC1
effect on DAA-I-induced production of PGE2 and PGI2 [3, 16]: not

angiotensin II
production of PGF2α ([4]; 10^−7 M angiotensin II): inducing the production
production of TXA2 (TXB2) ([4]; 10^−7 M angiotensin II): inducing the production

des-aspartate-angiotensin I
production of superoxide in lung [5]: significantly attenuated
Survival (Number out of 5 animals) Female Mice [6]: 5 out of 5 animals and 4 out of 5 animals
Survival (Number out of 5 animals) Male Mice [6]: 4 out of 5 animals
maximum protection from glucose-induced cell death ([2]; 10^−12 M DAA-I, additional 33.3 mM glucose): over 90%
concentration of maximum attenuation of cell death ([2]; additional 33.3 mM glucose): 10^−12 M
concentration of maximum attenuation of TNF-α-induced ICAM-1 (HUVEC): 10^−10 M
increase in lung gp91-phox protein [7]: significantly attenuated
production of hepatic heat shock protein 27 [8]: significantly enhanced the production
production of hepatic heat shock protein 70 [8]: significantly enhanced the production
maximum effective dose for attenuation of NF-κB translocation (L6 skeletal muscle cells [9]): 10^−10 M
attenuation of H2O2-induced translocation of NF-κB into the nucleus (L6 skeletal muscle cells [9]; 10^−10 M DAA-I): > 90%
viability of cultured B16-F10 melanoma cells (B16-F10 melanoma cells; 10^−6 M to 10^−20 M): concentration-dependently inhibited
concentration of maximum effect on viability (B16-F10 melanoma cells): 10^−10 M
concentrations attenuating growth of melanoma cells (B16-F10 melanoma cells): 10^−10 to 10^−14 M
No. of mice with tumor growth in liver [10]: 4
No. of mice with tumor growth in liver and abdominal lymphatics [10]: 2
production of heat shock protein 90 ([11]; 10^−6 M to 10^−20 M): concentration-dependently inhibited
cellular content of Hsp90 ([11]; 10^−10 to 10^−14 M): similarly attenuated
concentration of maximum effect on Hsp90 [11]: 10^−10 M
inhibition of LPS-induced superoxide production (A549 cells [12]; 10^−12 M DAA-I, 10 μg/ml LPS, 6 hours): complete
effect on basal level of superoxide (A549 cells [12]; 10^−14M DAA-I by itself): had no effect
production of ICAM-1 in lung (ICAM-1 protein in lungs): significantly attenuated
level of lung MPO (pulmonary MPO activity): significantly attenuated
maximum effective dose for attenuation of ICAM-1 overexpression (L6 skeletal muscle cells [13]; 200 μM H2O2): 10^−10 M
attenuation of H2O2-induced overexpression of ICAM-1 (L6 skeletal muscle cells [13]; 10^−10 M DAA-I, 200 μM H2O2): 100%
production of PGE2 ([4]; 10^−5 M DAA-I): less effective
production of PGF2α ([4]; 10^−5 M DAA-I): mimicked angiotensin II in inducing the production
production of PGI2 (6-keto PGF1α) ([4]; 10^−5 M DAA-I): less effective
production of TXA2 (TXB2) ([4]; 10^−5 M DAA-I): mimicked angiotensin II in inducing the production
basal production of PGF2α ([4]; 10^−10 M DAA-I): had no effect
basal production of thromboxane A2 (TXB2) ([4]; 10^−10 M DAA-I): had no effect
production of PGE2 ([4]; 10^−10 M DAA-I): specifically induced the production
production of PGI2 (6-keto PGF1α) ([4]; 10^−10 M DAA-I): specifically induced the production
concentration at which non specific action is exerted ([4]; concentration range of 10^−12 to 10^−5 M): 10^−6 M
release of T1α protein (T1-α protein in BALF; Day 1, 7, 14 post-HSM): significantly attenuated
attenuation of T1α protein release at 14 day of treatment (T1-α protein in BALF; day 14): complete attenuation
inhibition of LPS-induced E-selectin production (A549 cells [14]; 10^−12 M DAA-I, 10 μg/ml LPS, 24 hours): complete
effect on basal level of superoxide (legend of E-selectin figure) (A549 cells [14]; 10^−14M DAA-I by itself): had no effect
hypoglycemic action in euglycemic C57BL/6J mice (C57BL/6J mice): exert hypoglycemic action
HSM-induced decrease in lung PGI2 (6-keto PGF1α) [15]: attenuated the decrease
HSM-induced increase in lung PGE2 [15]: significantly enhanced the increase
concentrations of maximum attenuation of cell death ([1]; 400 μM dopamine, 24 h): 10^−10 to 10^−12 M
maximum protection from dopamine-induced cell death ([1]; 10^−12 M DAA-I, 400 μM dopamine): over 90%

H2O2
ICAM-1 overexpression (L6 skeletal muscle cells [13]; 200 μM H2O2, 4 h): 8 times the basal level
maximum effective dose for ICAM-1 overexpression (L6 skeletal muscle cells [13]; H2O2 50-1600 μM, 4 h): 200 µM

CCCCc1nc(Cl)c(CO)n1Cc1ccc(-c2ccccc2-c2nn[nH]n2)cc1
effect on DAA-I-induced production of PGE2 and PGI2 [3, 17]: blocked
